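96-well plates; 48 h exposure; 5 concentrations. Endpoints by linear interpolation between flanking doses. Not reached: highest tested concentration assigned. GI50: concentration for 50% inhibition of growth.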
Tests used:
Assay in all cases: growth of human tumour cells (NCI), 48 h; in the data active means GI50 below about 0.43 µM; inactive means the rest
[1] = test system: SK-MEL-5 melanoma
[2] = test system: MDA-N
[3] = test system: MCF7 breast
[4] = test system: TK-10 renal
[5] = test system: HOP-62 NSCLC
[6] = test system: SR leukemia
[7] = test system: 786-0 renal
[8] = test system: A549 NSCLC
[9] = test system: UACC-257 melanoma
[10] = test system: NCI/ADR-RES ovarian
[11] = test system: NCI-H322M lung
[12] = test system: OVCAR-3 ovarian
[13] = test system: ACHN renal
[14] = test system: U251 CNS
[15] = test system: A498 renal
[16] = test system: SK-MEL-28 melanoma
[17] = test system: KM12 colon
[18] = test system: T-47D breast
[19] = test system: BT-549 breast
[20] = test system: LOX IMVI melanoma
[21] = test system: SK-OV-3 ovarian
[22] = test system: SF-295 CNS
[23] = test system: SK-MEL-2 melanoma
[24] = test system: HOP-92 NSCLC
[25] = test system: DU-145 prostate
[26] = test system: IGROV1 ovarian
[27] = test system: SW-620 colon
[28] = test system: NCI-H23 lung
[29] = test system: NCI-H460 lung
[30] = test system: OVCAR-5 ovarian
[31] = test system: SF-268 CNS
[32] = test system: PC-3 prostate
[33] = test system: K-562 leukemia
[34] = test system: UO-31 renal
[35] = test system: CAKI-1 renal
[36] = test system: SNB-19 CNS
[37] = test system: HT29 colon
[38] = test system: OVCAR-4 ovarian
[39] = test system: RPMI-8226 leukemia
[40] = test system: MDA-MB-435
[41] = test system: HCT-116 colon
[42] = test system: HCT-15 colon
[43] = test system: UACC-62 melanoma
[44] = test system: M14 melanoma
[45] = test system: MALME-3M melanoma
[46] = test system: OVCAR-8 ovarian
[47] = test system: SNB-75 CNS
[48] = test system: MDA-MB-231 breast
[49] = test system: SN12C renal
[50] = test system: MOLT-4 leukemia
[51] = test system: EKVX NSCLC
[52] = test system: CCRF-CEM leukemia
[53] = test system: RXF 393 renal
[54] = test system: COLO 205 colon

Measured: GI50

CN(C(=O)COc1ccc(Cl)c(Cl)c1)C1CCCC[C@@H]1N1CCCC1 (some centres undefined)
inactive: [1] 14.9 µM | [2] 87.7 µM | [3] 50.5 µM | [4] > 100 µM | [5] > 100 µM | [6] 64.5 µM | [7] 73.9 µM | [8] 99.5 µM | [9] 57.7 µM | [10] 93.2 µM | [11] > 100 µM | [12] > 100 µM | [13] > 100 µM | [14] 73 µM | [15] 50.4 µM | [16] 77.5 µM | [17] > 100 µM | [18] 50.8 µM | [19] 44.9 µM | [20] 60.5 µM | [21] > 100 µM | [22] > 100 µM | [23] > 100 µM | [24] 37.6 µM | [25] > 100 µM | [26] > 100 µM | [27] > 100 µM | [28] > 100 µM | [29] 85.7 µM | [30] 79.3 µM | [31] 45.5 µM | [32] 43.7 µM | [33] 51.1 µM | [34] 27.7 µM | [35] 69.2 µM | [36] > 100 µM | [37] 36.2 µM | [38] > 100 µM | [39] 46.8 µM | [40] > 100 µM | [41] 62 µM | [42] > 100 µM | [43] 43.5 µM | [44] 16.4 µM | [45] > 100 µM | [46] > 100 µM | [47] 57.7 µM | [48] 63.7 µM | [49] > 100 µM | [50] 31.8 µM | [51] > 100 µM | [52] > 100 µM | [53] 43.3 µM | [54] 35.7 µM
